Biological target: human leukocyte LAB TSPO (Homo sapiens, UniProt P30536)
Experiment: Ligand binding affinity to human leukocyte LAB TSPO

Amino acid sequences for entries named in this document (tags omitted).
UniProt P30536, whole entry: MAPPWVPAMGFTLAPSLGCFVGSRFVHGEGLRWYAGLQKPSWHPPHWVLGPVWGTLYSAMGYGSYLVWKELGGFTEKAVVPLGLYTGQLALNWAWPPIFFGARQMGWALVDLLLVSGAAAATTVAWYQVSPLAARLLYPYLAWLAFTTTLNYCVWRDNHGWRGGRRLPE

CCC(C)N(C)C(=O)c1cc2ccccc2c(-c2ccccc2Cl)n1 (stereo not shown) [compound 1, 1-(2-chlorophenyl)-N-methyl-N-(1-methylpropyl)-3-isoquinolinecarboxamide, reference compound]
Ki: 4 ± 1 nM

Source: paper PMC4216211 (Journal of Medicinal Chemistry, 2014)
